Earlier results on 2 substances are cited in patent US5698219A, “Nanoemulsion of the oil water type, useful as an ophthalmic vehicle and process for the preparation thereof” (Laboratorios Cusi, S.A., priority 1994, dated 1997).

For this data set the following is noted: literature.

On to lysophosphatidyl choline, for which the cataractogenic effects result is “possible cataractogenic effects”.

For the substance phosphatidyl choline, the cataractogenic effects entry is “possible cataractogenic effects”.
